Article PMC3412733, “Identification and recombinant expression of anandamide hydrolyzing enzyme from Dictyostelium discoideum” (BMC Microbiology, 2012)

T1: HIS-FAAH (Dictyostelium FAAH) (Dictyostelium discoideum, UniProt Q8MMR8)
T1 construct: gene DDB_G0275967
T1 sequence (Q8MMR8 1-637): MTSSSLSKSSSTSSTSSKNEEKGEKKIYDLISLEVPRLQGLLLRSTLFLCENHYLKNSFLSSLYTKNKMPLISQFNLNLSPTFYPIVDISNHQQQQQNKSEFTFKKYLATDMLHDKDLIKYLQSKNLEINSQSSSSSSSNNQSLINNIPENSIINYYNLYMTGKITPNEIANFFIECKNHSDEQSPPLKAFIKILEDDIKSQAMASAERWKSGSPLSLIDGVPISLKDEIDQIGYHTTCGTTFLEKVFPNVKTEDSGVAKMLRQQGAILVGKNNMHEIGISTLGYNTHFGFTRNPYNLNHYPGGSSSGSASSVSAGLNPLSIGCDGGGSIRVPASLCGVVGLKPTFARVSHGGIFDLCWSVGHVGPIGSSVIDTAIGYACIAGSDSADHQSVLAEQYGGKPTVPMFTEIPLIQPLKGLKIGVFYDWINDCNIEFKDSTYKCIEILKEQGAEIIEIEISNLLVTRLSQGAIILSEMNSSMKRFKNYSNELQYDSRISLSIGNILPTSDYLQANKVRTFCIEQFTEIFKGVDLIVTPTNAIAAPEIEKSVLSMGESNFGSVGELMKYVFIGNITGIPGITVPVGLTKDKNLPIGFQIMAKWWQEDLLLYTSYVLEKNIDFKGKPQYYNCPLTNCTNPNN


Legend:
[1] = biological target: T1, HIS-FAAH (Dictyostelium FAAH); experiment: biochemical; conditions: read-out: % inhibition at 2.5 mM
[2] = substrate: CCCCC/C=C\C/C=C\C/C=C\C/C=C\CCCC(=O)Nc1ccc([N+](=O)[O-])cc1; experiment: p-nitroaniline release, A380, Michaelis-Menten fit; type: biochemical, Dictyostelium discoideum; conditions: pH 9.0, 37°C, 0.5% Triton X-100, 10% DMSO
[3] = substrate: CCCCCCCCCC(=O)Nc1ccc([N+](=O)[O-])cc1; experiment: p-nitroaniline release, A380, Michaelis-Menten fit; type: biochemical, Dictyostelium discoideum; conditions: pH 9.0, 37°C, 0.5% Triton X-100, 10% DMSO

| inhibition at 2500 µM [1] [%] | Molecule | Km [2] [µM] | kcat [2] [s⁻¹] | Km [3] [µM] | kcat [3] [s⁻¹] |
| --- | --- | --- | --- | --- | --- |
| ~62 | CN(C)C(=O)n1nnnc1Cc1ccc(-c2ccccc2)cc1 [LY2183240] |  |  |  |  |
|  | HIS-FAAH (Dictyostelium FAAH) (Dictyostelium discoideum) (protein, full length (637 residues, 70 kDa), N-terminal 6xHis tag kept, expressed in Dictyostelium AX3 (pDEXRH), Ni-NTA purified with Triton X-100) MTSSSLSKSSSTSSTSSKNEEKGEKKIYDLISLEVPRLQGLLLRSTLFLCENHYLKNSFLSSLYTKNKMPLISQFNLNLSPTFYPIVDISNHQQQQQNKSEFTFKKYLATDMLHDKDLIKYLQSKNLEINSQSSSSSSSNNQSLINNIPENSIINYYNLYMTGKITPNEIANFFIECKNHSDEQSPPLKAFIKILEDDIKSQAMASAERWKSGSPLSLIDGVPISLKDEIDQIGYHTTCGTTFLEKVFPNVKTEDSGVAKMLRQQGAILVGKNNMHEIGISTLGYNTHFGFTRNPYNLNHYPGGSSSGSASSVSAGLNPLSIGCDGGGSIRVPASLCGVVGLKPTFARVSHGGIFDLCWSVGHVGPIGSSVIDTAIGYACIAGSDSADHQSVLAEQYGGKPTVPMFTEIPLIQPLKGLKIGVFYDWINDCNIEFKDSTYKCIEILKEQGAEIIEIEISNLLVTRLSQGAIILSEMNSSMKRFKNYSNELQYDSRISLSIGNILPTSDYLQANKVRTFCIEQFTEIFKGVDLIVTPTNAIAAPEIEKSVLSMGESNFGSVGELMKYVFIGNITGIPGITVPVGLTKDKNLPIGFQIMAKWWQEDLLLYTSYVLEKNIDFKGKPQYYNCPLTNCTNPNN | 47 | 0.045 | 65 | 0.023 |
